Assay results reported in BindingDB's records for doi:10.1021/jm020153s (Purdue University, 2002).
pEC50: −log10 of the molar value.

Amino acid sequences for entries named in this document (tags omitted).
UniProt P14842, whole entry: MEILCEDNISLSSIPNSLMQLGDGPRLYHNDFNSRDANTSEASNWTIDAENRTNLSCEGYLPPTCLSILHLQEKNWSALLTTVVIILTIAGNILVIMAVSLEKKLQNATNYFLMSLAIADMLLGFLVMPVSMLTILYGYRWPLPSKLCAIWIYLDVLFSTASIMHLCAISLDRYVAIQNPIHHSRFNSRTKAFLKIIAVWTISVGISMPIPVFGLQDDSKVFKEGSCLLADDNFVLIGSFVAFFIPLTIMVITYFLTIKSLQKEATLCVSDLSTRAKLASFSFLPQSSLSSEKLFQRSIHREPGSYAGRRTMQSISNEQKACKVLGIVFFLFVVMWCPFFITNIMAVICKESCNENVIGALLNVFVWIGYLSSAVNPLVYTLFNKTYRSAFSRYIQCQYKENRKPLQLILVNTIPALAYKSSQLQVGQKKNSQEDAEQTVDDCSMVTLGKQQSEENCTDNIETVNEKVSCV

Target: 5-hydroxytryptamine receptor 2A (Rattus norvegicus, UniProt P14842)
Experiment: Functional potency at the rat 5-hydroxytryptamine 2A receptor as effective concentration EC50 for stimulating Phosphoinositide accumulation

CCN(CC)C(=O)[C@@H]1C=C2c3cccc4[nH]cc(c34)C[C@H]2N(C)C1 [(4R,7R)-N,N-diethyl-6-methyl-6,11-diazatetracyclo[7.6.1.0^{2,7}.0^{12,16}]hexadeca-1(16),2,9,12,14-pentaene-4-carboxamide]
pEC50: 7.82
